Drawing on PubChem BioAssay AID1768 (National Center for Advancing Translational Sciences (NCATS), 2009), this text covers FP activity change, negative = inhibition for two molecules.

Sequences of proteins named here, by UniProt entry; tags and fusion partners are left off.
UniProt O00255, whole entry: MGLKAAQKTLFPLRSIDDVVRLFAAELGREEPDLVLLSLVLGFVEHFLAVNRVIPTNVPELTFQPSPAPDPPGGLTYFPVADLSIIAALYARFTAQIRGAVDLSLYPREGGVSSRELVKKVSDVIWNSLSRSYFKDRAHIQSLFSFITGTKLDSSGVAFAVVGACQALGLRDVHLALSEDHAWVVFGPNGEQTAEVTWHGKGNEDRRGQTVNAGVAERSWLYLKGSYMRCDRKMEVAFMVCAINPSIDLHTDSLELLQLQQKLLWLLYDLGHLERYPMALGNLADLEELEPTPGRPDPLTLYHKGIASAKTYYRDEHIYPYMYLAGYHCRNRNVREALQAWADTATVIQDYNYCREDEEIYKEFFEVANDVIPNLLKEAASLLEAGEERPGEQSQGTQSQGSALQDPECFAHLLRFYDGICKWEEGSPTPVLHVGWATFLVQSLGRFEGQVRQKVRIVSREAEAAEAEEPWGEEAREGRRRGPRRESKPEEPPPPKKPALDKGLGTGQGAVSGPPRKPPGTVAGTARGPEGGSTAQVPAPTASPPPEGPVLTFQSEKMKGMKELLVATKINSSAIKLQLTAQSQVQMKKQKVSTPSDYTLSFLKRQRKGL
UniProt Q03164, whole entry partner: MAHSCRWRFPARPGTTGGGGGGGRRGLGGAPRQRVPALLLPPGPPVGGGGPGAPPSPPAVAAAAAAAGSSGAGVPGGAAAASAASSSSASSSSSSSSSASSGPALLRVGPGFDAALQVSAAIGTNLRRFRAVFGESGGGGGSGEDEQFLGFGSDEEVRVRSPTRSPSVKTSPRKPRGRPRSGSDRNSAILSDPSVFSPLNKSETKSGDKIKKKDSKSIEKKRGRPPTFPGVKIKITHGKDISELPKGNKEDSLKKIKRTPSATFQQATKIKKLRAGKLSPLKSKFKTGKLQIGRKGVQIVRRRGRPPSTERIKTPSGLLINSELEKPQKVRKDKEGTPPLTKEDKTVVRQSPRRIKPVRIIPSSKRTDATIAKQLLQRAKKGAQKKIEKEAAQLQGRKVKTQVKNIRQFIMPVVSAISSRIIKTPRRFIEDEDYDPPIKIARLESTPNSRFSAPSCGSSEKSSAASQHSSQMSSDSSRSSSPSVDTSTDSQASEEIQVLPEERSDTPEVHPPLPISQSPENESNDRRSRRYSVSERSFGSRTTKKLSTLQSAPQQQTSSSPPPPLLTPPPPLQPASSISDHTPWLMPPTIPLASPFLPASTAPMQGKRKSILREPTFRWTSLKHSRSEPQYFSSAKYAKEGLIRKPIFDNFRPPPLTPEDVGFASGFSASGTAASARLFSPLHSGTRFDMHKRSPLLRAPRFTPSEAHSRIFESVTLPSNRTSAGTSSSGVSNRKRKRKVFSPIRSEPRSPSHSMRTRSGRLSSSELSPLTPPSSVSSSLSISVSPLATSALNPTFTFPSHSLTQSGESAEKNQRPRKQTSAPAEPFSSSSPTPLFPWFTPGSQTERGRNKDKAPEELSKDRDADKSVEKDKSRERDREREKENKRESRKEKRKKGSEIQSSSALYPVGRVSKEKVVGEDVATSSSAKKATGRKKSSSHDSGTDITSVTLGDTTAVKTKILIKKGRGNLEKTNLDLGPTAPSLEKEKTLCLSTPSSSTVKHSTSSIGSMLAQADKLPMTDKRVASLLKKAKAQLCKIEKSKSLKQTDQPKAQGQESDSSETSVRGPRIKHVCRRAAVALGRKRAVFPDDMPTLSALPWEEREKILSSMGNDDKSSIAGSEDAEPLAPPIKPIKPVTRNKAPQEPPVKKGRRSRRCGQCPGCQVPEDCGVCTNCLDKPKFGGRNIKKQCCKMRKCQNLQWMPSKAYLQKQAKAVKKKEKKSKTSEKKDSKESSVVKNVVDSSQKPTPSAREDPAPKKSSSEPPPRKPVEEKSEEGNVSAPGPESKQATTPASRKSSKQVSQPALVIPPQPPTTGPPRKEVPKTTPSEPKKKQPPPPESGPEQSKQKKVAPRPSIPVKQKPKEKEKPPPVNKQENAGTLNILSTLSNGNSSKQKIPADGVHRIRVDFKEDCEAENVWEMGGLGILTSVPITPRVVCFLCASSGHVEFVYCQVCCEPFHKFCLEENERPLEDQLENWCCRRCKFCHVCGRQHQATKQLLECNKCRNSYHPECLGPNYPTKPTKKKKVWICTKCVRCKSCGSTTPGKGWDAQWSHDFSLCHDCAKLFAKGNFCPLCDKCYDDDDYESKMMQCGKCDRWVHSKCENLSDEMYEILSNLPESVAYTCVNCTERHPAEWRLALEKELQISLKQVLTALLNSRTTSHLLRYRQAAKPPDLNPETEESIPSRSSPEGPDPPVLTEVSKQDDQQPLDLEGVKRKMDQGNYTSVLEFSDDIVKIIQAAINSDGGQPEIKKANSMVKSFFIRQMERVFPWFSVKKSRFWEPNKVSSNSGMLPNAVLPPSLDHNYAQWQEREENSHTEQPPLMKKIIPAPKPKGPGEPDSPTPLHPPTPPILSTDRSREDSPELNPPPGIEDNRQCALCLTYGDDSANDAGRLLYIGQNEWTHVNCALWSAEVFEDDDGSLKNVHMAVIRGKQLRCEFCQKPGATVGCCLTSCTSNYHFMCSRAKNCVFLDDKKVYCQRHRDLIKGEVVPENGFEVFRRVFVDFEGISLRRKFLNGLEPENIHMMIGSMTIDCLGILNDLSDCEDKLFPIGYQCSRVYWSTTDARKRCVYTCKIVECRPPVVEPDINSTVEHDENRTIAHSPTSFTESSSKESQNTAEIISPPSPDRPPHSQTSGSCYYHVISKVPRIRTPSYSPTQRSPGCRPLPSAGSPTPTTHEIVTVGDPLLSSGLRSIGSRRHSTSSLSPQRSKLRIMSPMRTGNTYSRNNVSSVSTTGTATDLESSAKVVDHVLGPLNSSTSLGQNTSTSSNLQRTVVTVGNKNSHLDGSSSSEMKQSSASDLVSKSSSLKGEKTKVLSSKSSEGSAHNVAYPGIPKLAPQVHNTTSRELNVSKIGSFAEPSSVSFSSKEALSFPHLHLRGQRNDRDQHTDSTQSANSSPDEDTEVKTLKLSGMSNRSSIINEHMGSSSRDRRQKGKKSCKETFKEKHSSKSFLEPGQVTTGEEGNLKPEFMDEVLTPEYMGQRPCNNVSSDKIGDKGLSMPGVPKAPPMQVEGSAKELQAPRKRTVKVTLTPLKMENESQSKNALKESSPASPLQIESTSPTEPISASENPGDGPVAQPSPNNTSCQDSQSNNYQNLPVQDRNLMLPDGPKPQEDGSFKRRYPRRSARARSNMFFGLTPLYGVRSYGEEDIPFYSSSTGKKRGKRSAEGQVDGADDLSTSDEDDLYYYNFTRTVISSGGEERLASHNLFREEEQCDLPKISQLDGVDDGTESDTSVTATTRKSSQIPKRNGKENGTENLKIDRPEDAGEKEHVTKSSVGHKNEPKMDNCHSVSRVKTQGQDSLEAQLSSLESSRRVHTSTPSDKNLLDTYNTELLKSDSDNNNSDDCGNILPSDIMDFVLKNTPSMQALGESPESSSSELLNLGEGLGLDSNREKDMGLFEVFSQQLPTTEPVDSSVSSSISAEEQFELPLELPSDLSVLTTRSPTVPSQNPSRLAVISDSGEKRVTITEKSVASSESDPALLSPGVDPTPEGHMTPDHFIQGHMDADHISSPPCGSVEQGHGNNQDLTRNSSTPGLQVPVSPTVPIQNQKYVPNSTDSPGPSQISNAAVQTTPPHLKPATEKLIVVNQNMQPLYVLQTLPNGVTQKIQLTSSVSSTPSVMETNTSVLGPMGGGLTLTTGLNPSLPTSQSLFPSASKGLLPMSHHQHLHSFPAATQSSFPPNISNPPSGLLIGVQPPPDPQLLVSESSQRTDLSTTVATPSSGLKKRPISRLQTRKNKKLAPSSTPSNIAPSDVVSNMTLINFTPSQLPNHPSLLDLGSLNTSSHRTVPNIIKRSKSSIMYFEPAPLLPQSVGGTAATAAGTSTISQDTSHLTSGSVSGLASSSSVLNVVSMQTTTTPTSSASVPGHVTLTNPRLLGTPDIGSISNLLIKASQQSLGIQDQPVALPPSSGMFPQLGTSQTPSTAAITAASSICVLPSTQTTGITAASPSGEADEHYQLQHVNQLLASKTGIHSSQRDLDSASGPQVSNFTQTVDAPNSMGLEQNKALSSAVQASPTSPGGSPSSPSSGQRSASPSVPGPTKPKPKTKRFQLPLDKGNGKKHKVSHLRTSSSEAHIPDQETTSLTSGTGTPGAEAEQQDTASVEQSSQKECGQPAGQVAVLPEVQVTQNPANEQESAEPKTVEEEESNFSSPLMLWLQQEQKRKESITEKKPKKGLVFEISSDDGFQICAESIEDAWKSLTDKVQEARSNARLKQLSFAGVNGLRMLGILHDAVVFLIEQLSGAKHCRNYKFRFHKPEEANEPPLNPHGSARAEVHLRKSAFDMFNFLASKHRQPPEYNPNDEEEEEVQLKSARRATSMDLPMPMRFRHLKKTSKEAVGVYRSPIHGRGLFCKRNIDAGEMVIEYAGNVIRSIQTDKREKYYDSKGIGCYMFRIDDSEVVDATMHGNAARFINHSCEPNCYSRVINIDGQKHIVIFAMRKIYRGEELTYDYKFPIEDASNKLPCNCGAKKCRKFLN

“And” between values parts separate entries of the source, which are not always exact repeats. Equal values may be shown once. The list shows a part of the results, in another mix than the full data. Results filed as inconclusive are left out. The source made the active and inactive calls. The call rests on the fitted dose curve; in most records, active means well fitted inhibition curve with a large enough effect in the polarisation, with a control signal flat (not every such curve was filed as active); inconclusive means small, poorly fitted or top-dose-only effect, or effect the other way, or a change in a side signal; inactive means no such curve, though single readings can be large or run the other way; the % refers to the polarisation.

The target in this assay is Menin (Homo sapiens) (UniProt O00255). The assay is described as follows: qHTS Assay for Inhibitors Targeting the Menin-MLL Interaction in MLL Related Leukemias: Competition With Texas Red Labeled MLL-derived Mutant Peptide. Further: % of control where 0% means no effect. The settings on record: fluorescence polarization; at 61.6 µM (top of the series). (qHTS replaces the single test concentration by a dilution series.)
With `CN(CCCl)CCCl`, the FP activity change, negative = inhibition was inactive: -2.87% and inactive: 2.4%.

On to `CCC(=O)N(c1ccccc1)C1CCN(CCc2ccccc2)CC1`, for which the FP activity change, negative = inhibition was inactive: -9.35%.
